Earlier results on one molecule are cited in US11844786B2 (ADEPTIO PHARMACEUTICALS LIMITED, priority 2017, dated 2023).

Protein sequences, listed by entry. Tags and fused reporters are not part of them.
UniProt Q01827, whole entry: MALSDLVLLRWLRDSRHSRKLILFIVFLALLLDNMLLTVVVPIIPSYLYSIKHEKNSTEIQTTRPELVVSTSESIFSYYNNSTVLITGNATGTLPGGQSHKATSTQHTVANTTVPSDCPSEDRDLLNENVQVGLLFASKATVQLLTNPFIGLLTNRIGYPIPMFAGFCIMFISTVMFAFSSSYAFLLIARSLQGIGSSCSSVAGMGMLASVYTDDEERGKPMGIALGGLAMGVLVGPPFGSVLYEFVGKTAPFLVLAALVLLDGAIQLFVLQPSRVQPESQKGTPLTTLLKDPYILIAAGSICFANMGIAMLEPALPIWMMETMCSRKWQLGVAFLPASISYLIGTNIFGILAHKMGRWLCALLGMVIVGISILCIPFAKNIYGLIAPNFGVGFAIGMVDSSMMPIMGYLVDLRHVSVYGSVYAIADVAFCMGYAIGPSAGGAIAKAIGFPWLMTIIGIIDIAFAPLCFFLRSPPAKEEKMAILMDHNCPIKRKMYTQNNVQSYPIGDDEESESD

This data set has as its target VMAT2 (Rattus norvegicus, UniProt Q01827). As to conditions: statement in words; cited from earlier work.

For the molecule `COc1cc2c(cc1OC)[C@H]1C[C@@H](O)[C@H](CC(C)C)CN1CC2` [(+)-α-DHTBZ, (2R, 3R, 11bR)-3-isobutyl-9,10-dimethoxy-1,3,4,6,7,11b-hexahydro-2H-pyrido[2,1,a]isoquinolin-2-ol], the “activity as a VMAT2 binding agent” value is “most active”.
